Assay results taken from patent US7553861B2, “Dipeptidyl peptidase-IV inhibitors” (Alantos Pharmaceuticals Holding, Inc., priority 2005, dated 2009).

Sequences of proteins named here, by UniProt entry; tags and fusion partners are left off.
UniProt P27487, whole entry: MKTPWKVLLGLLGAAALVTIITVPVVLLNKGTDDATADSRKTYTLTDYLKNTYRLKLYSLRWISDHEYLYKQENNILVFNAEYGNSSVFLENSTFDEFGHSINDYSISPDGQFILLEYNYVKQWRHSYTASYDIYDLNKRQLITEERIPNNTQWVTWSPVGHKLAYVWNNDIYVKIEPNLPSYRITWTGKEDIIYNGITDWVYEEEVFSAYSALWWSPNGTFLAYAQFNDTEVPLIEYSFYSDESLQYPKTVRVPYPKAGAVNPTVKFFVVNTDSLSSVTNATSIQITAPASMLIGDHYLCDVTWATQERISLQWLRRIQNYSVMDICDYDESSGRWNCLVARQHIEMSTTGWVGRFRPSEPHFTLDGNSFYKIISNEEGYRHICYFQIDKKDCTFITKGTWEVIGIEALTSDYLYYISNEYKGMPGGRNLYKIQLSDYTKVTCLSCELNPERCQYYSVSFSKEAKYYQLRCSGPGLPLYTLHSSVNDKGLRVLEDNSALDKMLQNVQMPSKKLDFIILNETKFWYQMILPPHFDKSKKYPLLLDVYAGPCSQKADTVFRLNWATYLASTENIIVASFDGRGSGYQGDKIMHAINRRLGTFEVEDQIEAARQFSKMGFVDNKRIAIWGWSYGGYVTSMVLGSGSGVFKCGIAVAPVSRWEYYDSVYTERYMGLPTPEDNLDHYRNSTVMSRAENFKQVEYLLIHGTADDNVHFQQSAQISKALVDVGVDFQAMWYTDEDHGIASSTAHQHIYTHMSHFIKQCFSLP

Molecular target: DPP-IV (Homo sapiens, UniProt P27487)
Experiment: Assay for determining DP-IV inhibition (fluorometric, Gly-Pro-AMC substrate)
Conditions: read-out: Activity (K(i)), Inhibition of DPP-IV, K(i) calculated from IC(50) with IC(50)=K(i)(1+[S]/Km), pH 8.0

- Ki: 0.006 to 0.05 µM
SMILES: C[C@@H](CC1(c2noc(=O)[nH]2)c2ccc(C(=O)N(C)C)cc2CCc2cc(C(=O)N(C)C)ccc21)NCC(=O)N1CCC[C@H]1C#N
